# Assay results reported in paper PMC4753485, “Selective potentiation of 2-APB-induced activation of TRPV1–3 channels by acid” (Scientific Reports, 2016).
# How the values were obtained:
# mouse TRPV3 = molecular target: T1, mouse TRPV3 (Mus musculus, UniProt Q8K424); assay: Whole-cell recordings of TRPV3 currents in HEK293 cells; type: cell-based; conditions: for Peak current amplitude at pH 5.5 relative to pH 7.4: after sensitization with 100 μM 2-APB
# T1 construct: Full-length cDNA for murine TRPV3 was isolated and subcloned into pIRES2-EGFP; expressed in transfected cells; host or cells: HEK293 (transient)
# T1 sequence (Q8K424 1-791): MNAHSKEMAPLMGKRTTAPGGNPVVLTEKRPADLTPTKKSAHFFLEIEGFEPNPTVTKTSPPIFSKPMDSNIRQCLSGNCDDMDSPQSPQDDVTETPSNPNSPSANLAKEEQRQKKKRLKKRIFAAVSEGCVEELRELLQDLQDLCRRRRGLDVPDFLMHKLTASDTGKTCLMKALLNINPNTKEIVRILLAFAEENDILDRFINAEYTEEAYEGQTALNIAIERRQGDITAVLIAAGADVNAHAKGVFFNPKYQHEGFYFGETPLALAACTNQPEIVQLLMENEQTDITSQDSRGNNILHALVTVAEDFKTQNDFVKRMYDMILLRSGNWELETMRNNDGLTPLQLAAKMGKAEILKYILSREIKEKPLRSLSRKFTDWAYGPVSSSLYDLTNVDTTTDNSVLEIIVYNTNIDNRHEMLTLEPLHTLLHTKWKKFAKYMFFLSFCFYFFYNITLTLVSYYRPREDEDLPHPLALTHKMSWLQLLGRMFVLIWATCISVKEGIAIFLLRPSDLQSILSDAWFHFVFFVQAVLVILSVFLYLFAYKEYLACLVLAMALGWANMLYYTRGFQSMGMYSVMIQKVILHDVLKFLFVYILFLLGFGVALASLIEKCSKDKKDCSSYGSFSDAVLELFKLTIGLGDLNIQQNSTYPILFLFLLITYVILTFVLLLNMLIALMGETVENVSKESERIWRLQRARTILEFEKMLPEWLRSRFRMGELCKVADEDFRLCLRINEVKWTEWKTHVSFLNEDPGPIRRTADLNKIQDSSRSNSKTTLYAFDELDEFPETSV
# Protocol: The resulting mutations were verified by DNA sequencing.
# Whole-cell recordings were performed the following day. […] All pharmacological experiments met this criterion. […] Camphor was purchased from Acros (New Jersey, USA).
# TRPM8 = TRPM8 (Rattus norvegicus, UniProt Q8R455); conditions: pH 5.5 versus pH 7.4
# Excerpt: (§1) Full-length cDNA for murine TRPV3 was isolated and subcloned into pIRES2-EGFP, as previously described. The wild-type rat TRPV1, TRPV2 and TRPM8 cDNAs were generously provided by Dr. Feng Qin (State University of New York at Buffalo, Buffalo). All mutations were made using either QuikChange® XL site-directed mutagenesis kit (Agilent Technologies) or the overlap-extension polymerase chain reaction (PCR) method as previously described. The resulting mutations were verified by DNA sequencing. HEK293 cells were grown in DMEM containing 4.5 mg/ml glucose, 10% heat-inactivated fetal bovine serum, 50 units/ml penicillin, and 50 μg/ml streptomycin. For electrophysiological experiments, cells were seeded in 35 mm culture dishes and transfected with the desired DNA constructs using Lipofectamine 2000 (Invitrogen) following the protocol provided by the manufacturer. Stable TRPV3 expressing cells were selected in the G418-containing medium. For intracellular Ca^2+ measurements, cells were transfected with the desired DNA constructs in the wells of 96-well plates without pre-seeding using Lipofectamine 2000 (Invitrogen) as described.
# (§2) Transfected HEK293 cells were reseeded on 12 mm round glass coverslips (Warner Instruments) one day after transfection. Whole-cell recordings were performed the following day. Recording pipettes were pulled from borosilicate glass capillaries (Sutter or World Precision Instruments) to 2–4 MΩ when filled with internal solution containing (in mM) 140 CsCl, 2.0 MgCl2, 5 EGTA, 10 HEPES, pH 7.4. Bathing solution contained (in mM) 140 NaCl, 5 KCl, 5 EGTA, 1 MgCl2, 10 glucose and 10 HEPES, pH 7.4. Isolated cells were voltage clamped in the whole-cell mode using an EPC10 amplifier (HEKA Instruments Inc). Voltage commands were made from the Patchmaster program, and the currents were recorded at 5 kHz. […] Whole-cell recordings were typically sampled at 5 kHz and filtered at 1 kHz. The compensation of pipette series resistance and capacitance were taken by using the built-in circuitry of the amplifier (>80%) to reduce voltage errors. Exchange of external solutions was performed using a gravity-driven local perfusion system (Automate Scientific). Channel activators were diluted into the recording solution at the desired final concentrations and applied to the cell through perfusion. As determined by the conductance tests, the solution around a patch under study was fully controlled by the application of a solution with a flow rate of 100 μl/min or greater. […] The acidic solutions contained (in mM): 140 NaCl, 5 KCl, 5 EGTA, 1 MgCl2, 10 glucose, and 10 MES, with pH adjusted to desired values by NaOH. For inside-out recordings, both the pipette solution and bath solution contained (in mM) 140 NaCl, 5 KCl, 5 EGTA, 1 MgCl2, 10 HEPES, pH 7.4. Excised patches were held constantly at desired potentials while compounds were repetitively applied and washed from the bath. For recordings from HEK293 cells under acidic pH conditions, the solution also contained 50 μM amiloride as an inhibitor of the native ASIC channels. Camphor was purchased from Acros (New Jersey, USA). Diphenyl borate (DPB) was synthesized by Beijing Realchem Technology Company (Beijing, China). Other chemicals were purchased from Sigma (Sigma, St. Louis, MO). Water-insoluble reagents were dissolved in either 100% ethanol or DMSO to make stock solutions and were diluted in the bathing solution at appropriate concentrations before experiments. […] All experiments except those for heat activation were performed at room temperature (22–24 °C).
# TRPV2 = TRPV2 (Rattus norvegicus, UniProt Q9WUD2); conditions: 300 μM 2-APB; for Current relative to that at pH 7.4, cytoplasmic side: inside-out, +60 mV
# Excerpt: as §1, §2
# TRPV3 = TRPV3 (Mus musculus, UniProt Q8K424); conditions: 5 μM 2-APB; inside-out; +60 mV; after sensitization with 100 μM 2-APB
# Excerpt: as §1, §2
# mTRPV3(E610Q) = mTRPV3(E610Q) (Mus musculus, UniProt Q8K424, E610Q); conditions: E610Q mutant
# Excerpt: as §1, §2
smiles,measurement,setting,value
"NCCOB(c1ccccc1)c1ccccc1 [2-APB, 2-aminoethoxydiphenyl borate]",Peak current amplitude at pH 5.5 relative to pH 7.4,mouse TRPV3; 5 μM 2-APB,~10 fold
same,Peak current amplitude at pH 5.5 relative to pH 7.4,mouse TRPV3; 30 μM 2-APB,~ 2 fold
same,Reduction of EC50 by low pH,mouse TRPV3; pH 5.5 versus pH 7.4,about 12 fold
same,Reduction of IC50 by low pH,TRPM8,about 7 fold
same,Whole-cell current relative to that at pH 7.4,TRPV2; pH 5.5,13 fold
same,"Current relative to that at pH 7.4, cytoplasmic side",TRPV2; pH 5.5,~19 fold
same,Whole-cell current relative to that at pH 7.4,TRPV2; pH 6.0,8 fold
same,"Current relative to that at pH 7.4, cytoplasmic side",TRPV2; pH 6.0,approximately 15 fold
same,"Current at pH 5.5 relative to pH 7.4, cytoplasmic side",TRPV3,about 8 fold
same,Current amplitude at pH 5.5 relative to pH 7.4,mTRPV3(E610Q); 5 μM 2-APB,~7 fold
same,Current amplitude at pH 5.5 relative to pH 7.4,mTRPV3(E610Q); 30 μM 2-APB,about 2 fold

# Where two headings read alike, the source gives them in different places.
